# This is a selection; strong and weak results do not stand in their true shares. The source made the active and inactive calls. Calls follow the shape of the dose curve; as a rule, active = well fitted curve in the direction sought with a large enough effect; inconclusive = small, poorly fitted or top-dose-only effect, or another doubt; inactive = no such curve, though single readings can be large or run the other way.
# Chains of the proteins cited; added tags and fusions are not shown.
# UniProt P51570, whole entry: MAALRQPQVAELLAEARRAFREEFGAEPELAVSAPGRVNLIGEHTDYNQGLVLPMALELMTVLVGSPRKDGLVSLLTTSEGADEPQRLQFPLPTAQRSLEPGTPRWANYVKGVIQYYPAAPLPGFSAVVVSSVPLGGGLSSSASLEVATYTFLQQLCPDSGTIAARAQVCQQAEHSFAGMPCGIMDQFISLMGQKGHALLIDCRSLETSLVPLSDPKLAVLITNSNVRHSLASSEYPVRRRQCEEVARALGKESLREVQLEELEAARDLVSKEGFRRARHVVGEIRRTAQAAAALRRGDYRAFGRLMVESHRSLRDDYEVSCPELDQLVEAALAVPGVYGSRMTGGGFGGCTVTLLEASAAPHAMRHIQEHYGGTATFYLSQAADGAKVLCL
# Target: Galactokinase (Homo sapiens) (UniProt P51570)
# Experiment: qHTS Assay for Inhibitors of Human Galactokinase (GALK): NCGC Sytravon Library Screen;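 also: plate controls were full GALK reaction for no effect and reaction lacking GALK for full effect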
# Settings: recombinant GALK, Kinase-Glo ATP luminescence, 1 h; at 57.5 µM (top of the series)
# From the text: Inherited deficiency of galactose-1-phosphate uridyltransferase (GALT) can result in a potentially lethal disorder called Classic Galactosemia (OMIM 230400). Several lines of evidence indicate that an elevated level of galactose-1-phosphate (gal-1-p), the product of galactokinase (GALK), is a major, if not sole, pathogenic mechanism in patients with classic galactosemia. Therefore, finding inhibitors of GALK is a potential novel therapy for this inherent metabolic disease and is the long term goal of this project. This screen is run against the NCGC Sytravon compound library collection. GALK (provided by Kent Lai) was assayed using ATP and D-(+)-Galactose (Sigma-Aldrich cat# G0750) as substrates. Promega Kinase-Glo Plus technology was used to detect kinase activity. Reactions with and without GALK were used as negative and positive controls together with Protein Tyrosine Phosphatase CD45 inhibitor (EMD Bioscience cat# 540215) which is shown to inhibit GALK activity. Decrease in activity corresponds to inhibition of the enzyme is the desired outcome for this assay. NIH Molecular Libraries Probe Production Network [MLPCN] NIH Chemical Genomics Center [NCGC] Grant: R03 MH085689-01 PI Name: Kent Lai Ph.D., University of Utah
# NCGC Assay Protocol Summary: Three uL/well of ATP-buffer solution (35 uM ATP, 20mM HEPES pH8.0, 5 mM MgCl2, 60 mM NaCl, 1 mM DTT, 0.01% BSA final concentration) was dispensed into 1536-well, assay plates (Greiner, solid white medium-binding plates) with Aurora Discovery BioRAPTR Flying Reagent Dispenser (FRD; Beckton-Dickenson). Compound solution (23 nL) was transferred to the assay plate using the Kalypsys 1536-pin tool. One uL/well GALK-galactose solution (5 nM GALK, 100 uM galactose, 20 mM HEPES pH8.0, 5 mM MgCl2, 60 mM NaCl, 1 mM DTT, 0.01% BSA final concentration) was then added using the FRD yielding a total kinase reaction volume of 4 uL/ well. After 1 hour of room temperature incubation, 4 uL Kinase-Glo Plus reagent was added for a final assay volume of 8 uL/ well. Luminescence was detected with the ViewLux plate reader (Perkin Elmer, Waltham, MA) after 10 min incubation using a 1 sec exposure time and 2x binning.
row,Structure (SMILES),"activity, negative = inhibition"
1,COc1ccccc1C(=O)NCC1(N2CCOCC2)CCCCC1,inactive: -9.4%
2,CCCOc1cccc(C(=O)NCC2(N3CCOCC3)CCCCC2)c1,inactive: 1.52%
3,O=C(NCC1(N2CCOCC2)CCCCC1)c1ccccc1Br,inactive: 1.41%
4,CCCCOc1ccccc1C(=O)NCC1(N2CCOCC2)CCCCC1,inactive: 0.345%
5,O=C(NCC1(N2CCOCC2)CCCCC1)c1ccc([N+](=O)[O-])cc1,inactive: 0.267%
6,O=C(NCC1(N2CCOCC2)CCCCC1)c1ccccc1[N+](=O)[O-],inactive: -5.6%
7,O=C(NCC1(N2CCOCC2)CCCCC1)c1ccccc1,inactive: -2.18%
8,CN(C)C1(CNC(=O)c2ccc(C(C)(C)C)cc2)CCCCC1,inactive: 0.133%
9,CC(C)(C)c1ccc(C(=O)NCC2(N3CCOCC3)CCCCC2)cc1,inactive: 4.59%
10,Cc1ccccc1C(=O)NCC1(N(C)C)CCCCC1,inactive: 0.751%
11,COc1cc(C(=O)NCC2(N3CCOCC3)CCCCC2)cc(OC)c1OC,inactive: 4.85%

# — PubChem BioAssay AID1347072 (National Center for Advancing Translational Sciences (NCATS), 2019)
